Assay results: ChEMBL document CHEMBL1152937, “Carbonic anhydrase inhibitors. Inhibition and homology modeling studies of the fungal beta-carbonic anhydrase from Candida albicans with sulfonamides” (Bioorg Med Chem, 2009)

Target: T1, Carbonic anhydrase (Candida albicans (strain SC5314 / ATCC MYA-2876) (Yeast), UniProt Q5AJ71)
T1 sequence (Q5AJ71 whole entry): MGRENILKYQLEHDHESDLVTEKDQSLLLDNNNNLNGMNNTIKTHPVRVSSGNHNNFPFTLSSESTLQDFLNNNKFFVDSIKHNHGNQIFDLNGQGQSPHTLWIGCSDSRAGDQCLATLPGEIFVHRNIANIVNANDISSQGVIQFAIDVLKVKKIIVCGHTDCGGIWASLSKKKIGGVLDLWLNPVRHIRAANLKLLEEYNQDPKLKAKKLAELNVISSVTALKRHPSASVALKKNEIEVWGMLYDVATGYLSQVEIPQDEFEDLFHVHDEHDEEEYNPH

`NS(=O)(=O)c1ccc(S(=O)(=O)Nc2cccc3c(Cl)c[nH]c23)cc1` gave a Ki of 1090 nM.
